The source of these data is paper PMC4042160 (2014).

Protein sequences, listed by entry. Tags and fused reporters are not part of them. Residues count along the entry.
UniProt Q5S007, 970-2527: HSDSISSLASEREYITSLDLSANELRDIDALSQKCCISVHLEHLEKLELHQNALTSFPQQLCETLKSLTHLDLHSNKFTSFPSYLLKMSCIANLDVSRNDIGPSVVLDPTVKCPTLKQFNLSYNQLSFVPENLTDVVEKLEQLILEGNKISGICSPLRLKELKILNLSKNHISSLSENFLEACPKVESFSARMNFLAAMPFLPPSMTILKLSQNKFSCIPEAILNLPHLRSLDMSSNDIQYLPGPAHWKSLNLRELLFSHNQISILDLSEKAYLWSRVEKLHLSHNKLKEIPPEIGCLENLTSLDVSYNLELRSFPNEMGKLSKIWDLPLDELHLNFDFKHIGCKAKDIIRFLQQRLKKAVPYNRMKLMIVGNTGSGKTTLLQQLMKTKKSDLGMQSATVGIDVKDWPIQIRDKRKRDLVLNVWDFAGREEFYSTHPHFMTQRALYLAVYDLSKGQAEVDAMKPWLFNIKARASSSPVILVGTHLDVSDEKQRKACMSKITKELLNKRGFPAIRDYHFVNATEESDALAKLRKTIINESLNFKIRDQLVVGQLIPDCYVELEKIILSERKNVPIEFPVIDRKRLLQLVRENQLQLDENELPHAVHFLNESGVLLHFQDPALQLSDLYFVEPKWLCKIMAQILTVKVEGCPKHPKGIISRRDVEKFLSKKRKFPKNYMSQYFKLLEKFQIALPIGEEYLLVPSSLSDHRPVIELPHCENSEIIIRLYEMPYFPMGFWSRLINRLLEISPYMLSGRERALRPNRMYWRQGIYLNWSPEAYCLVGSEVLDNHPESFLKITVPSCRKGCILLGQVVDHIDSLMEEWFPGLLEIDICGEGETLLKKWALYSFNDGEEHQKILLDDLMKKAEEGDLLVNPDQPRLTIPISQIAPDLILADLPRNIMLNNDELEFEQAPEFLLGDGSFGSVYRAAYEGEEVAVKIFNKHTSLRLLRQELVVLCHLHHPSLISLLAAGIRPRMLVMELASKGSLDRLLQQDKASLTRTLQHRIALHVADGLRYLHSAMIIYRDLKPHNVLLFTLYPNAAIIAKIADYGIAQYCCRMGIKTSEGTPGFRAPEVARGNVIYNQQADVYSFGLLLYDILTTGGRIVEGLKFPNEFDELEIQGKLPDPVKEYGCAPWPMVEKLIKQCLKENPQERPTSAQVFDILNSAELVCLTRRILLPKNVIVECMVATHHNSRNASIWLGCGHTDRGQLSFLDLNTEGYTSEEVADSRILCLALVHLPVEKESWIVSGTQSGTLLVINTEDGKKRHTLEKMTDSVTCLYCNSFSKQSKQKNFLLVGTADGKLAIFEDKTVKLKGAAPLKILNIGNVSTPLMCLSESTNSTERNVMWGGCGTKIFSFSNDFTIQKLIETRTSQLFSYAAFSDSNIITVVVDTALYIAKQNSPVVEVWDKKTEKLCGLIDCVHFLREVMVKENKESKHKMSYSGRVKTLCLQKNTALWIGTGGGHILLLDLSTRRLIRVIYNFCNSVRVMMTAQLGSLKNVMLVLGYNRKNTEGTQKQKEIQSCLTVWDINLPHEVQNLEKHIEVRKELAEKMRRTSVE

The target of assay [1] is GST-tagged truncated LRRK2 containing residues 970 to 2527 (Homo sapiens, UniProt Q5S007). Kind of assay: In vitro LRRKtide peptide-substrate kinase assay, single dose testing (10 μM). The class given is biochemical. The following applies: LRRKtide assay @ 10 μM inhibitor; GST-LRRK2 970-2527; 10 μM ATP; mean, N = 3; solvent control = 100%.
A further assay concerns the target LRRK2 phospho-Ser935 (Homo sapiens, UniProt Q5S007). Kind of assay: Cellular LRRK2 phosphoserine 935 dephosphorylation spotblot assay in SH-SY5Y cells stably expressing 3xFlag-LRRK2. The following applies: @ 5 μM for 2 h, pS935/total LRRK2.

As for Staurosporine, N-benzoyl-, the “% LRRKtide phosphorylation relative to solvent” value in assay [1] stood at 2.31%. The “Phosphorylation level relative to solvent (%) (cellular pS935 assay)” value at LRRK2 phospho-Ser935 was found to be 67.82%.
